For the assay, the target named is Man-6-P receptor on parental HeLa cells. The experiment in a line: cell-based or functional assay.

In the case of “acid α-glucosidase (GAA), myc-tagged (from UniProt P10253 57-952) (enzyme)”, the % uptake by HeLa cells, no Man-6-P; enzyme made with Endogenous PTase amounted to 4.05%; the % uptake by HeLa cells, no Man-6-P; enzyme made with S1-S3 stood at 12.8%; the % uptake by HeLa cells, no Man-6-P; enzyme made with WT α/β came to 3.31%; the % uptake by HeLa cells, with 5 mM Man-6-P; enzyme made with Endogenous PTase is 0.22%. Moreover, the % uptake by HeLa cells, with 5 mM Man-6-P; enzyme made with S1-S3 was determined as 2.99%; the % uptake by HeLa cells, with 5 mM Man-6-P; enzyme made with WT α/β amounted to 0.44%; the % uptake, M6PR Dependent; enzyme made with Endogenous PTase is 3.8%; the % uptake, M6PR Dependent; enzyme made with S1-S3 is 8.8%. The % uptake, M6PR Dependent; enzyme made with WT α/β came to 2.9%; the Fold Increase of M6PR dependent uptake over Endogenous PTase; enzyme made with S1-S3 is 2.6 X; the Fold Increase of M6PR dependent uptake over Endogenous PTase; enzyme made with WT α/β came out at 0.8 X.
